# From patent US9127001B2, “Substituted 4,5,6,7-tetrahydro-1H-pyrazolo[4,3-c]pyridines, their use as medicament, and pharmaceutical preparations comprising them” (Sanofi, priority 2011, dated 2015)
# Protein sequences, listed by entry. Tags and fused reporters are not part of them. Lines headed by an entry give the natural chain unless they say otherwise; changes in a name come on top.
# UniProt O14649: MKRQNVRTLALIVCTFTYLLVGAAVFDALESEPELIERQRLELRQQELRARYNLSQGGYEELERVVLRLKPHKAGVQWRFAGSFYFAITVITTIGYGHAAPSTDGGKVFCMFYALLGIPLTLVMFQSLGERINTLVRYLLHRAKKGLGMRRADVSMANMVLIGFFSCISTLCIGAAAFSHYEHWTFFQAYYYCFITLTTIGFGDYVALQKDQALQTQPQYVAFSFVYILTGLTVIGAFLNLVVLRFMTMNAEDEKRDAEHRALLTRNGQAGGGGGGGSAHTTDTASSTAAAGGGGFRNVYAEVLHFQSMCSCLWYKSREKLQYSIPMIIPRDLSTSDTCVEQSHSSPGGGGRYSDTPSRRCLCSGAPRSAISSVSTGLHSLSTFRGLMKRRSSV
# Biological target: Human TASK-1 channels (Homo sapiens (Human), UniProt O14649)
# Experiment: Activity on the TASK-1 channel in Xenopus oocytes (two-microelectrode voltage clamp)
# Format: cell-based
# Settings: human TASK-1 expressed in Xenopus oocytes, currents during pulses to 40 mV, room temperature
# Procedure: Human TASK-1 channels were expressed in Xenopus oocytes. For this purpose, oocytes were isolated from Xenopus laevis and defoliculated. Subsequently, TASK-1-encoding RNA synthesized in vitro was injected into oocytes. After two days of TASK-1 protein expression, TASK-1 currents were measured by two-microelectrode voltage clamp. Data were acquired and analyzed using a TEC-10cx amplifier (NPI Electronic, Tamm, Germany) connected to an ITC-16 interface (Instrutech Corp., Long Island, USA) and Pulse software (HEKA Elektronik, Lambrecht, Germany). Oocytes were clamped to −90 mV and TASK-1 mediated currents were measured during 500 ms voltage pulses to 40 mV. Oocytes were continuously superfused with ND96 buffer containing: NaCl 96 mM, KCl 2 mM, CaCl2 1.8 mM, MgCl2 1 mM, HEPES 5 mM (pH adjusted to 7.4 with NaOH). All experiments were performed at room temperature.
# Test substances were consecutively added to the bath solution at rising concentrations. […] IC50 values were obtained by fitting the data to the general dose-response equation.
row,IC50 [nM],SMILES
1,966,"CCC(c1ccc(Cl)cc1)n1nc(-c2ccc(F)cc2)c2c1CCN(C(C)=O)C2 (single isomer, unassigned) [Example 6bl, 1-[1-[1-(4-Chloro-phenyl)-propyl]-3-(4-fluoro-phenyl)-1,4,6,7-tetrahydro-pyrazolo[4,3-c]pyridin-5-yl]-ethanone]"
2,251,"CCC(c1ccc(Cl)cc1)n1nc(-c2ccc(F)cc2)c2c1CCN(C(C)=O)C2 (single isomer, unassigned) [Example 6bm, 1-[1-[1-(4-Chloro-phenyl)-propyl]-3-(4-fluoro-phenyl)-1,4,6,7-tetrahydro-pyrazolo[4,3-c]pyridin-5-yl]-ethanone]"
3,540,"CC(c1ccc(F)cc1)n1nc(-c2ccc(F)cc2)c2c1CCN(S(C)(=O)=O)C2 (single isomer, unassigned) [Example 9a]"
4,611,"CC(c1ccc(F)cc1)n1nc(-c2ccc(F)cc2)c2c1CCN(S(C)(=O)=O)C2 (single isomer, unassigned) [Example 9b]"
5,1520,"CCNC(=O)N1CCc2c(c(-c3ccc(F)cc3)nn2C(C)c2ccc(F)cc2)C1 (single isomer, unassigned) [Example 11b, 3-(4-Fluoro-phenyl)-1-[1-(4-fluoro-phenyl)-ethyl]-1,4,6,7-tetrahydro-pyrazolo[4,3-c]pyridine-5-carboxylic acid ethylamide]"
6,1170,"CCNC(=O)N1CCc2c(c(-c3ccc(F)cc3)nn2C(C)c2ccc(F)cc2)C1 (single isomer, unassigned) [Example 11c, 3-(4-Fluoro-phenyl)-1-[1-(4-fluoro-phenyl)-ethyl]-1,4,6,7-tetrahydro-pyrazolo[4,3-c]pyridine-5-carboxylic acid ethylamide]"
